According to article PMC8279520:

Target: glyceraldehyde-3-phosphate dehydrogenase (GAPDH) isolated from rabbit muscle (rabbit) (UniProt P46406)

Aβ16 (peptide)
death of SH-SY5Y cells (CytoTox-96) with Aβ peptide (6 μM) and GAPDH (30 μg/mL): 19.5%
death of SH-SY5Y cells (CytoTox-96) with Aβ peptide (6 μM), GAPDH (30 μg/mL) and tTG (5 μg/mL): 31.5%
